Data set [1] can be described thus: Half-life in the presence of total cell extract(TCE) was evaluated. It is filed as ADME.
Data set [2] is described as follows: Lipophilicity of compound evaluated by HPLC retention time on reverse phase C18 column.
The nature of data set [3]: Half-life in the presence of pig liver esterase(PLE) was evaluated. Format: ADME, tissue-based, Sus scrofa. The following applies: in vivo.

`Cc1cn([C@H]2C[C@H](OP(C)(=O)O)[C@@H](COP(C)(=O)O[C@H]3C[C@H](n4cc(C)c(=O)[nH]c4=O)O[C@@H]3COP(C)(=O)O[C@H]3C[C@H](n4cc(C)c(=O)[nH]c4=O)O[C@@H]3COP(=O)(OCCSC(=O)C(C)(C)C)O[C@H]3C[C@H](n4cc(C)c(=O)[nH]c4=O)O[C@@H]3COP(=O)(OCCSC(=O)C(C)(C)C)O[C@H]3C[C@H](n4cc(C)c(=O)[nH]c4=O)O[C@@H]3COP(=O)(OCCSC(=O)C(C)(C)C)O[C@H]3C[C@H](n4cc(C)c(=O)[nH]c4=O)O[C@@H]3COP(=O)(OCCSC(=O)C(C)(C)C)O[C@H]3C[C@H](n4cc(C)c(=O)[nH]c4=O)O[C@@H]3COP(=O)(OCCSC(=O)C(C)(C)C)O[C@H]3C[C@H](n4cc(C)c(=O)[nH]c4=O)O[C@@H]3COP(=O)(OCCSC(=O)C(C)(C)C)O[C@H]3C[C@H](n4cc(C)c(=O)[nH]c4=O)O[C@@H]3COP(C)(=O)O[C@H]3C[C@H](n4cc(C)c(=O)[nH]c4=O)O[C@@H]3COP(C)(=O)O[C@H]3C[C@H](n4cc(C)c(=O)[nH]c4=O)O[C@@H]3COP(C)(=O)O[C@H]3C[C@H](n4cc(C)c(=O)[nH]c4=O)O[C@@H]3CO)O2)c(=O)[nH]c1=O` (stereo partly drawn): the T1/2 in data set [1] came out at 72 min; in data set [3], 35 min. Also, the Retention time in data set [2] came to 60.5 min.

For the origin of these results see ChEMBL document CHEMBL1131398, “First synthesis of alternating SATE-phosphotriester/phosphodiester prooligonucleotides on solid support” (Bioorg Med Chem Lett, 1998).
